Consider 3 substances from US20260041744A1, “Methods for Treating Pompe Disease” (Amicus Therapeutics, Inc., priority 2022, published 2026).

Several values for one entry are separate records, joined by “and”; a condition that tells them apart may be missing. Equal values may be shown once. Where only a bound is given, the exact number is not on record here.

The target in assay [1] is cellular receptors (CIMPR) on normal and Pompe patient fibroblasts (human) (UniProt P11717).
Assay [2] deals with cation-independent mannose-6-phosphate receptor (CIMPR), purified (affinity column, coated plates, overlay probe). The assay is described as follows: CIMPR affinity column, flow-through against M6P-eluted fraction, measured by GAA activity.
In assay [3] the target is cellular receptors (CIMPR) on normal and Pompe patient fibroblasts (human) (UniProt P11717). The assay can be described thus: cell-based or functional assay.
Assay [4] shares this target. This is another data set of the same source.
Assay [5] deals with cation-independent mannose-6-phosphate receptor (CIMPR), purified (affinity column, coated plates, overlay probe). The assay can be described thus: CIMPR affinity chromatography of purified ATB200 from different production batches.
The target is the same in assay [6]. The assay can be described thus: CIMPR affinity chromatography; fractions assayed for GAA activity (F460); flow-through peak before the M6P addition, bracketed 'rhGAA lacks M6P; cannot be targeted to lysososmes'.
Assay [7] shares this target. The assay can be described thus: CIMPR affinity column, same conditions as for MYOZYME and LUMIZYME
Assay [8] has the same target. The assay can be described thus: CIMPR affinity chromatography; fractions assayed for GAA activity (F460); bound material eluted with an M6P gradient up to about 1 mM, then a step to about 5 mM; peak bracketed 'rhGAA contains M6P; targeted to lysososmes'.
Assay [9] shares this target. The assay can be described thus: M6P receptor (CIMPR) plate binding assays.

In [1], “LUMIZYME® (alglucosidase alfa, conventional rhGAA product) (from UniProt P10253 57-952) (enzyme)” came in with a Kuptake, Pompe fibroblast cell line of 57 nM and a Kuptake, normal fibroblast cell line of 56 nM. Further, in assay [2], the percent of rhGAA bound (M6P-containing fraction) stood at 22% and the percent of rhGAA that did not bind was found to be 78%. In assay [3], this substance came in with a concentration that saturates cellular receptors (uptake into fibroblasts) of 250 nM and an uptake efficiency constant (Kuptake) of 56 nM.

For the substance “MYOZYME® (alglucosidase alfa, conventional rhGAA product) (from UniProt P10253 57-952) (enzyme)”, in assay [2], the percent of rhGAA bound (M6P-containing fraction) is 27% and the percent of rhGAA that did not bind came to 73%.

Take “ATB200 rhGAA (recombinant human acid α-glucosidase produced from CHO cell line GA-ATB200) (from UniProt P10253 57-952) (enzyme)”: in assay [1], the Kuptake, Pompe fibroblast cell line is 3 nM and the Kuptake, normal fibroblast cell line came to 2 nM. For the same substance, in assay [4], the EC50 (read off the curve); internalized GAA activity in skeletal muscle myoblasts came out at 10 nM. In addition, the CIMPR receptor binding (percent of rhGAA bound) in assay [5] was above 70%. In addition, the fraction of total GAA activity not bound to the CIMPR column (flow-through) in assay [6] is 30% and 8%. Also, the percent of rhGAA bound in [7] is above 70%. For the same substance, the fraction of total GAA activity bound to the CIMPR column and eluted with M6P in [8] was 70% and 92%. For the same substance, the concentration that saturates cellular receptors (uptake into fibroblasts) in assay [3] came to 20 nM. For the same substance, the Kd in assay [9] lay in the range of 2 to 4 nM.

One may read the Kd as the constant that tells how readily two partners part at equilibrium. The low end stands for higher affinity, the high end for lower affinity.
